Numbers after ± are expanded uncertainties.
Assay: activity coefficient (dimensionless); of the first substance listed, at infinite dilution; xn = mol fraction of the nth substance listed
Conditions: 101 kPa, Liquid, Chromatography, x1 = 0

CCCCOCCCC [dibutyl ether] + CCCC[n+]1cccc(C)c1.N#C[N-]C#N
Conditions | activity coefficient
308.15 K | 41.9 ± 2.9
318.15 K | 39.2 ± 2.7
328.15 K | 37.1 ± 2.5
338.15 K | 35.1 ± 2.4
348.15 K | 34 ± 2.3
358.15 K | 32 ± 2.2
368.15 K | 30.8 ± 2.1
